Assay results taken from PubChem BioAssay (NCI).
The list shows a part of the results, in another mix than the full data. Some salts and complexes are drawn in separate pieces, as the source files them; their charges need not balance. Active and inactive are the calls of the source. Rule as the data show it: active = growth inhibition above about 70%; inactive = the rest.

Experiments:
[1] = NCI Yeast Anticancer Drug Screen. Data for the rad50 strain (AID 155);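 also: 0% = growth of vehicle-only cultures of the same strain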; settings: S. cerevisiae rad50 strain growth inhibition; at 50.0 µM; stronger effect = higher value
[2] = NCI Yeast Anticancer Drug Screen. Data for the mec2-1 strain (AID 157); settings: S. cerevisiae mec2-1 strain, at 50.0 µM, stronger effect = higher value
[3] = NCI Yeast Anticancer Drug Screen. Data for the sgs1 mgt1 strain (AID 161);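 also: 0% = growth of cultures given vehicle only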; settings: S. cerevisiae sgs1 mgt1 strain, at 50.0 µM, stronger effect = higher value
[4] = NCI Yeast Anticancer Drug Screen. Data for the cln2 rad14 strain (AID 165);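 also: 0% = growth equal to vehicle treated cultures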; settings: S. cerevisiae cln2 rad14 strain, at 50.0 µM, stronger effect = higher value
[5] = NCI Yeast Anticancer Drug Screen. Data for the bub3 strain (AID 167); settings: S. cerevisiae bub3 mutant strain, at 50.0 µM, stronger effect = higher value
[6] = NCI Yeast Anticancer Drug Screen. Data for the mlh1 rad18 strain (AID 175); settings: S. cerevisiae mlh1 rad18 strain growth inhibition; at 50.0 µM; stronger effect = higher value

Measured: growth inhibition

CC(=O)C(C)Sc1ccccn1.O=[N+]([O-])c1cc([N+](=O)[O-])c(O)c([N+](=O)[O-])c1
inactive: [1] 12.1% | [2] 4.8% | [3] 19.4% | [4] 5.9% | [5] -8.85% | [6] -13.4%

CC(=O)[CH-]C(=O)c1ccccc1.CC(=O)[CH-]C(=O)c1ccccc1.O=C([O-])C([O-])(c1ccccc1)c1ccccc1.O=C([O-])C([O-])(c1ccccc1)c1ccccc1.[Ti+4]
inactive: [1] 19.9% | [2] 3.55% | [3] 29.7% | [4] -8.65% | [5] 23.2% | [6] 17.4%

CC(C)CCC(O)(C(=O)OCCN1CCCC1)c1ccccc1 (stereo unspecified)
inactive: [1] 1.8% | [2] -4.6% | [3] 8.8% | [4] -10% | [5] -5.3% | [6] 3.55%

O=C1OCCN1[N+](=O)[O-]
inactive: [1] 2.6% | [2] 12.8% | [3] 9.35% | [4] 32.8% | [5] 23.2% | [6] 26.1%

CC(=O)C(CN(C)C)CN(C)C.O=[N+]([O-])c1cc([N+](=O)[O-])c(O)c([N+](=O)[O-])c1
inactive: [1] 26.4% | [2] 14% | [3] 5.7% | [4] -5.25% | [5] 5.8% | [6] 28.8%

CC1CCCCCN1C.O=[N+]([O-])c1cc([N+](=O)[O-])c(O)c([N+](=O)[O-])c1
inactive: [1] 4.8% | [2] -9.5% | [3] 5.45% | [4] 18.8% | [5] -6.2% | [6] 27.9%

CCCN(CCC)CCC.O=[N+]([O-])c1cc([N+](=O)[O-])c(O)c([N+](=O)[O-])c1
inactive: [1] 4.6% | [2] 2.25% | [3] 2.75% | [4] -25.2% | [5] -3.95% | [6] 13.8%

CC(C)OP(C)(=O)O.[Gd]
inactive: [1] 5.85% | [2] 0.2% | [3] 10.4% | [4] -18.1% | [5] -6% | [6] 12.7%

O=[N+]([O-])c1cc([N+](=O)[O-])c2nonc2c1O
inactive: [1] 17.4% | [2] 3.1% | [3] 9.1% | [4] -28.4% | [5] -16.4% | [6] 11.6%

CC(C)OP(C)(=O)O.[Cr]
inactive: [1] 5% | [2] -20.1% | [3] 1.35% | [4] -41.9% | [5] -3% | [6] -14.3%

CC(C)N1CCCCC1.O=[N+]([O-])c1cc([N+](=O)[O-])c(O)c([N+](=O)[O-])c1
inactive: [1] -8% | [2] -8% | [3] 3.55% | [4] -12.3% | [5] 47.2% | [6] 17.6%

CP(=O)(O)O.[Cu+2]
inactive: [1] -6.2% | [2] -9.55% | [3] -4.45% | [4] -45.1% | [5] -46.5% | [6] -6.6%

CN(C)[P+](C)(N(C)C)N(C)C
inactive: [1] 17.3% | [2] 16.4% | [3] 37.5% | [4] 19.9% | [5] 16.2% | [6] 32.2%

NC(=NCCO[N+](=O)[O-])N[N+](=O)[O-]
inactive: [1] -1.1% | [2] -1.2% | [3] -9.15% | [4] -13.3% | [5] -13.9% | [6] 12.7%

ClCCCc1ccncc1.O=[N+]([O-])c1cc([N+](=O)[O-])c(O)c([N+](=O)[O-])c1
inactive: [1] -3.3% | [2] -0.55% | [3] 6.65% | [4] -1.35% | [5] -0.95% | [6] -11.9%

Cc1ccncc1F.O=[N+]([O-])c1cc([N+](=O)[O-])c(O)c([N+](=O)[O-])c1
inactive: [1] -15.9% | [2] -22.3% | [3] 6.9% | [4] 0.35% | [5] 6.75% | [6] 10.9%

Cc1cccc2ccc3cccc(C)c3c12
inactive: [1] 14.9% | [2] 4.5% | [3] 21.7% | [4] -8.75% | [5] 8.25% | [6] 31.4%

CC(C)OP(C)(=O)O.[Nd]
inactive: [1] 8.9% | [2] 2.3% | [3] 9.7% | [4] -18.5% | [5] -12.9% | [6] -10.3%

[C-]#[O+].[C-]#[O+].[C-]#[O+].[C-]#[O+].[Hg].[W].[W].[c-]1[c-][c-][cH-][c-]1.[c-]1[c-][c-][cH-][c-]1.c1ccc(O[PH+](Oc2ccccc2)Oc2ccccc2)cc1.c1ccc(O[PH+](Oc2ccccc2)Oc2ccccc2)cc1
inactive: [1] -9% | [2] -5.5% | [3] -2.1% | [4] 0.45% | [5] 3.35% | [6] -17.1%

CN(C)[P+](N(C)C)(N(C)C)C(Cl)(Cl)Cl.O=[N+]([O-])c1cc([N+](=O)[O-])c([O-])c([N+](=O)[O-])c1
inactive: [1] 22.9% | [2] -53.9% | [3] 19.4% | [4] -5.05% | [5] -2.25% | [6] 27.9%

Cc1cccc(C)n1.O=[N+]([O-])c1cc([N+](=O)[O-])c(O)c([N+](=O)[O-])c1
inactive: [1] 17.5% | [2] -12.4% | [3] 9.9% | [4] 11.9% | [5] 10.8% | [6] 9.25%

Cc1ccc2c(ccc3cc(C)ccc32)c1.O=C1c2cc([N+](=O)[O-])ccc2-c2c1cc([N+](=O)[O-])cc2[N+](=O)[O-]
inactive: [1] 21.6% | [2] 12.7% | [3] 2.05% | [4] 4.2% | [5] -1.2% | [6] 32.7%

COc1nncc2ccccc12.O=[N+]([O-])c1cc([N+](=O)[O-])c(O)c([N+](=O)[O-])c1
inactive: [1] 46.8% | [2] 4.25% | [3] 29.5% | [4] -3.05% | [5] 2.7% | [6] 8.05%

CCCC(CCC)CN(C)C.O=[N+]([O-])c1cc([N+](=O)[O-])c(O)c([N+](=O)[O-])c1
inactive: [1] 34.1% | [2] 17.9% | [3] 37.7% | [4] 10.2% | [5] 2% | [6] 21.9%

O=[N+]([O-])c1cc([N+](=O)[O-])c(O)c([N+](=O)[O-])c1.Oc1cccnc1I
inactive: [1] 61.1% | [2] 11.4% | [3] 57.6% | [4] -21.6% | [5] 7.75% | [6] 48.2%

O=[N+]([O-])c1cc([N+](=O)[O-])c(O)c([N+](=O)[O-])c1.c1cc(N=Nc2ccncc2)ccn1
inactive: [1] 6.65% | [2] 11.7% | [3] 38% | [4] 26.8% | [5] 13.5% | [6] 14%
